Earlier results in US20150133460A1 (Millennium Phamaceuticals, Inc., priority 2013, published 2015).

Tested on: human Flt-3/ITD-positive AML cancer cells
Details: preclinical studies; cited from earlier work

COc1cc2c(N3CCN(C(=O)Nc4ccc(OC(C)C)cc4)CC3)ncnc2cc1OCCCN1CCCCC1 [4-[6-methoxy-7-(3-piperidin-1-yl-propoxy)quinazolin-4-yl]piperazine-1-carboxylic acid(4-isopropoxyphenyl)-amide]
killing of human Flt-3/ITD-positive AML cancer cells: selectively killed
